This experiment concerns 60 human cancer cell lines. Put plainly: NCI 60 human cancer cell line assay, single dose. The conditions noted are these: single dose of 10 μM, 60 cell lines. It counts as cell-based. As to the method:
The cell lines used in this assay belonged to leukemia, non-small-cell lung cancer, colon cancer, CNS cancer, melanoma, ovarian cancer, renal cancer, prostate cancer, and breast cancer. The compounds were first tested at a single dose of 10 μM.

Each structure is given as a SMILES string.

For `C#Cc1nc(C2=C(C)C(O)CC2)cs1` (racemic) [CETZOLE 1, 3-(2-Ethynylthiazol-4-yl)-2-methylcyclopent-2-en-1-ol, reference compound], the mean percentage growth entry is “least cytotoxic”.

(Values after patent US20260199297A1, “FERROPTOSIS INDUCERS TO TREAT CANCER” (The University of Toledo, priority 2022, published 2026).)
